Test results as given in US9119848B2, “Morphinan derivatives for the treatment of drug overdose” (Alkermes Pharma Ireland Limited, priority 2009, dated 2015).
Like-named read-outs stand apart in the source and are kept apart here.

Legend:
[1] = system: subjective effects of remifentanil challenge infusion; details: 10 and 20 mg; p=0.31 vs saline
[2] = system: remifentanil-induced miosis; details: for onset of blockade of pupil miosis induced by REMI: healthy non-dependent opioid experienced subjects

In the case of `NC(=O)c1ccc2c(c1O)[C@]13CCN(CC4CC4)[C@H](C2)[C@]1(O)CCC(=O)C3` [Compound-1], the “duration of blockade of subjective effects of "Drug Liking"” value [1] is reported as “at least 48 hours”, the “duration of blockade of pupil miosis (blockade persisted)” value ([2]; 10 and 20 mg, p=0.54 vs saline) is reported as “at least 24 hours” and the “onset of blockade of pupil miosis induced by REMI” value ([2]; Compound-1 10 mg) is reported as ≤ 1 h. For the same molecule, the “onset of blockade of pupil miosis induced by REMI” value ([2]; Compound-1 20 mg) was ≤ 0.25 h, the “Compound-1 concentrations sufficient for full blockade” value ([2]; blockade of REMI effects) was “greater than 15 ng/mL” and the “partial blockade of physiologic and subjective effects persisted” value ([2]; post-dose, single dose 10 or 20 mg) was 4 days.
